Laboratory results reported in patent US11149040B2, “Fused triazole agonists of the APJ receptor” (AMGEN INC., priority 2017, dated 2021).

Protein sequences, listed by entry. Tags and fused reporters are not part of them. Lines headed by an entry give the natural chain unless they say otherwise; changes in a name come on top.
UniProt P35414: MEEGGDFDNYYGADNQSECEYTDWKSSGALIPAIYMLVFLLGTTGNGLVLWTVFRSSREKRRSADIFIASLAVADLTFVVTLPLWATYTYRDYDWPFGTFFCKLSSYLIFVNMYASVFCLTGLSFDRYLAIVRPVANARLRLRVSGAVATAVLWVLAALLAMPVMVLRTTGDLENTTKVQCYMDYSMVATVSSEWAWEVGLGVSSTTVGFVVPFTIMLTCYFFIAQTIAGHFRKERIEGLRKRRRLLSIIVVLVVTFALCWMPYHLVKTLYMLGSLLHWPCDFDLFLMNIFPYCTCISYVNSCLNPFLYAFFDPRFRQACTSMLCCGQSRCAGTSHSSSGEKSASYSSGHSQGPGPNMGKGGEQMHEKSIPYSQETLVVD

Target: human APJ-AT1R (angiotensin Type 1) double stable CHO cell line (Homo sapiens (Human), UniProt P30556+P35414)
Settings: added to APJ small molecule agonists in the presence of AngII

CCCCc1nc(Cl)c(CO)n1Cc1ccc(-c2ccccc2-c2nn[nH]n2)cc1 [losartan]
effect of AT1R blockade on cooperativity and APJ receptor efficacy: relieved this cooperativity and resulted in synergistic effects of enhancing the efficacy of the APJ receptor
